Data: US11931463B2, “All-in-one fixed-dose combination for treating Helicobacter pylori infection” (RedHill Biopharma Ltd., priority 2013, dated 2024)

Assays:
[1] = in vivo, po, 150 mg; cited from earlier work
[2] = human, in vivo, 50 mg

25-O-desacetylrifabutin
Cmax [1]: 27 ng/mL
expected Cmax [2]: ~9 ng/mL
